We go through one substance from patent US20250296968A1.

This experiment addresses endogenous mouse alpha-synuclein in wild-type mouse brain (mouse) (UniProt O55042). In words: cell-based or functional assay.

Turning to “K43&45R alpha-synuclein aggregate (from UniProt P37840 1-140)”, the seed activity in vivo (anti-pS129-positive aggregates in mouse brain 3 months after inoculation) (times the WT aggregate) was found to be 6.
